# Source: patent US10689367B2, “Triazole pyridyl compounds as agonists of the APJ receptor” (AMGEN INC., priority 2016, dated 2020)
# Amino acid sequences for entries named in this document (tags omitted). A change or cut given only in a name is not applied to a line headed by its entry.
# UniProt P35414: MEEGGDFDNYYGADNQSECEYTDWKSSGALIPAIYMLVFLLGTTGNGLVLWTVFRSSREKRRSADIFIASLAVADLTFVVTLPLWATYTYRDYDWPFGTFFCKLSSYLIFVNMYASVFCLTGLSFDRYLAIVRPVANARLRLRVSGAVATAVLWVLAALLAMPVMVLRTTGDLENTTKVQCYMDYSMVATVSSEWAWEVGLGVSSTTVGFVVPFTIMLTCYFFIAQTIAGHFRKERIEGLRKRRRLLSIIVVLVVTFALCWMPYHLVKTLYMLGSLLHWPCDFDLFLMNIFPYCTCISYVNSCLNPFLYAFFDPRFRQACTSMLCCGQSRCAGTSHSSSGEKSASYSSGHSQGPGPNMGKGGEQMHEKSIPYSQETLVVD
# Target: human APJ-AT1R (angiotensin Type 1) double stable CHO cell line (Homo sapiens (Human), UniProt P30556+P35414)
# Settings: added in the presence of AngII and APJ small molecule agonists
compound,measurement,value
CCCCc1nc(Cl)c(CO)n1Cc1ccc(-c2ccccc2-c2nn[nH]n2)cc1 [losartan],effect of AT1R blockade on APJ/AT1R cooperativity and APJ efficacy,relieved this cooperativity and resulted in synergistic effects of enhancing the efficacy of the APJ receptor
